Target: Prostaglandin G/H synthase 1 (Homo sapiens, UniProt P23219)
Experiment: Inhibition of human recombinant COX1 expressed in Sf9 cell microsomes assessed as reduction in conversion of arachidonic acid to PGE2 at 250 uM incubated for 5 mins by HTRF assay

Sequences of proteins named here, by UniProt entry; tags and fusion partners are left off.
UniProt P23219, whole entry: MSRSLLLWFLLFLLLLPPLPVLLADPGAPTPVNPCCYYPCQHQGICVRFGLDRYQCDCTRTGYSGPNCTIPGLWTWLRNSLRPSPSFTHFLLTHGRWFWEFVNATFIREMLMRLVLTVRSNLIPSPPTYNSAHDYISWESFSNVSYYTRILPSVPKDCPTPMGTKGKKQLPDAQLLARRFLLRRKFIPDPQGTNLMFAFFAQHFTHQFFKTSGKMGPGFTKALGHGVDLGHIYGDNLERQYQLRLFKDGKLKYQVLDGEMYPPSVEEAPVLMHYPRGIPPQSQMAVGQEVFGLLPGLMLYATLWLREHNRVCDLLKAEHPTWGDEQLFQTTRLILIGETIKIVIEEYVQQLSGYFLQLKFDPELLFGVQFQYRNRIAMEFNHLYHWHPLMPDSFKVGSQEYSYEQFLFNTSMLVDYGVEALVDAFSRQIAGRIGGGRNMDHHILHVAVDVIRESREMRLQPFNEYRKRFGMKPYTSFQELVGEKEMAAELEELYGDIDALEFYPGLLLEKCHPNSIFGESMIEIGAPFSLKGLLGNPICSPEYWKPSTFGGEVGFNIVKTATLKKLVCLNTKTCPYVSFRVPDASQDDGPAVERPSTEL

CC(C)(Oc1ccc(C(=O)c2ccc(Cl)cc2)cc1)C(=O)O
inhibition: 48%
